Values quoted from earlier work in patent publication US7001892B1, “Pharmaceutical materials and methods for their preparation and use” (Purdue Research Foundation, priority 1999, dated 2006).

Assays:
[1] = cited from earlier work
[2] = interferon alfa-2a; cited from earlier work

Substance	storage time of lyophilized powder ([1]; at 25° C.)	reconstituted solution stable for ([1]; reconstituted with sterile water, refrigerated temperatures)	specific activity [2]
Avonex	Formulation: Lyophilized powder (stored refrigerated or at 25 °C for < 30 days) which is reconstituted	approximately 7.3 (recon solution is stable for 6 hours at refrigerated temperatures). Weekly intramuscular	–
Roferon-A	–	–	Additional Information: Cost of therapy is $59,200 (28 mg protein over 1 year). Specific activity is 200 million international units per mg protein
